Measured values as given in patent US20100047159A1, “METHOD FOR RELEASING HYDROGEN FROM AMMONIA BORANE” (Purdue Research Foundation, priority 2008, published 2010).

Columns and labels:
[1] = room temperature (22° C.), stated as background; cited from earlier work

Ammonia borane [AB]
AB solubility in water (22° C. (room temperature)): 27.5 wt % | AB solubility in water (70° C.): ~50 wt % | solubility of AB in water [1]: about 26 wt %

Where two headings read alike, the source gives them in different places.
